Molecular target: Voltage-dependent calcium channel subunit alpha-2/delta-1 (Homo sapiens, UniProt P54289)

Chains of the proteins cited; added tags and fusions are not shown. Residues count along the entry.
UniProt P54289, 957-1103 limits assumed: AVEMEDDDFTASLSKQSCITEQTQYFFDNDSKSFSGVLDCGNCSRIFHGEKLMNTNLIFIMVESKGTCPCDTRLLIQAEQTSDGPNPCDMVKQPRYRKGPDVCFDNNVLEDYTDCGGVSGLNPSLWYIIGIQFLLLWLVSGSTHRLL
UniProt P54289, 25-956 limits assumed: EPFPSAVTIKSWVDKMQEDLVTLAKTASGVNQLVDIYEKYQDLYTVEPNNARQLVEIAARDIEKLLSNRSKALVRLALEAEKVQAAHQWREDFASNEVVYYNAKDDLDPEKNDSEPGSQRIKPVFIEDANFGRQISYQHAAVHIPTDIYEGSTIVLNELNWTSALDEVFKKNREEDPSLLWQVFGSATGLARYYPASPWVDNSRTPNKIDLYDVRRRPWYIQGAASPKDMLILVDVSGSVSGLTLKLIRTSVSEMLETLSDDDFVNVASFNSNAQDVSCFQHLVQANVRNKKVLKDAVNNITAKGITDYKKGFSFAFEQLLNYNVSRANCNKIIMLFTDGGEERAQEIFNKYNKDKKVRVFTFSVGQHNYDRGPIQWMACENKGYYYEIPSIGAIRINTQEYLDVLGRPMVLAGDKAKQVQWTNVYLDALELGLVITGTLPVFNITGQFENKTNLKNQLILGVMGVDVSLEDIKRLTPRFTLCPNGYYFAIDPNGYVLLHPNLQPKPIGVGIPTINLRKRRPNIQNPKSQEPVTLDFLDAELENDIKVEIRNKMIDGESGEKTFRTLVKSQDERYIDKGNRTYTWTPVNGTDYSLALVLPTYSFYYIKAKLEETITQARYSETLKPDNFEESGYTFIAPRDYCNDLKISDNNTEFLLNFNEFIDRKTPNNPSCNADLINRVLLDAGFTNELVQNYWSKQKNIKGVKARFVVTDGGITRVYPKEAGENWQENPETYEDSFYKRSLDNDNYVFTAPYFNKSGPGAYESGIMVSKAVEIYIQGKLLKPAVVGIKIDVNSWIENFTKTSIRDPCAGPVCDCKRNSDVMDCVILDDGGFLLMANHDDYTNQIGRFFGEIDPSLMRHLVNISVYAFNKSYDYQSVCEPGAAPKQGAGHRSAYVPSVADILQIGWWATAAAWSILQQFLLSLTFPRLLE

Compound: O=C(c1cccs1)N(c1ccn(-c2ccccc2)n1)C1CCNCC1
- Ki: 300 nM
